Measurements published in patent publication US10844057B2, “Process for preparing JAK inhibitors and intermediates thereof” (priority 2018, dated 2020).

Columns and labels:
[1] = tested on: TSLP-evoked TARC release in human peripheral blood mononuclear cells; test: Inhibition of TSLP-evoked TARC release in human peripheral blood mononuclear cells; type: cell-based; conditions: PBMC, 48 h, read-out: pIC50 ± st. dev., inhibition of TSLP-evoked TARC release (converted)
From the text: Assay 4: Inhibition of TSLP-Evoked TARC Release in Human Peripheral Blood Mononuclear Cells
Thymic stromal lymphopoietin (TSLP) and thymus and activation-regulated chemokine (TARC) are overexpressed in asthmatic airways, and correlate with disease severity. In the lungs, TSLP may be released by bronchial epithelial cells in response to allergens and viral infections. TSLP signals through an IL-7Rα/TSLPR heterodimer found in a broad range of tissues and cell types, including epithelial cells, endothelial cells, neutrophils, macrophages, and mast cells. […]
The potencies of the test compounds were measured for inhibition of TARC release. […]
Following stimulation, the cell culture supernatants were harvested and TARC levels were detected by enzyme-linked immunosorbent assay (ELISA), using Human CCL17/TARC Quantikine ELISA Kit (R&D Systems # DDN00) according to the manufacturer's instructions.
For dose response analysis, the log [test compound (M)] was plotted versus the percent response values for each donor, and IC50 values were determined using a nonlinear regression analysis with GraphPad Prism Software using the 4-parameter sigmoidal dose-response algorithm with variable slope. Data are expressed as mean pIC50 (negative decadic logarithm IC50) values calculated from pIC50 values of individual donors and rounded to one decimal place.

[2] = tested on: IL-2 stimulated STAT5 phosphorylation in Tall-1 human T cell line; test: Inhibition of IL-2 stimulated pSTAT5 in Tall-1 T cells; type: cell-based; conditions: TALL-1, read-out: Tall-1 pIC50 (converted)
Protocol: Assay 2: Inhibition of IL-2 Stimulated pSTAT5 in Tall-1 T Cells
The potency of test compounds for inhibition of interleukin-2 (IL-2) stimulated STAT5 phosphorylation was measured in the Tall-1 human T cell line (DSMZ) using AlphaLisa. Because IL-2 signals through JAK1/3, this assay provides a measure of JAK1/3 cellular potency.
Phosphorylated STAT5 was measured via the AlphaLISA SureFire Ultra pSTAT5 (Tyr694/699) kit (PerkinElmer).
Human T cells from the Tall-1 cell line were cultured in a 37° C., 5% CO2 humidified incubator in RPMI (Life Technologies) supplemented with 15% Heat Inactivated Fetal Bovine Serum (FBS, Life Technologies), 2 mM Glutamax (Life Technologies), 25 mM HEPES (Life Technologies) and 1×Pen/Strep (Life Technologies). […] Phosphorylated STAT5 was measured via the pSTAT5 AlphaLisa kit (PerkinElmer). […] Luminescence was measured with excitation at 689 nm and emission at 570 nm using an EnVision plate reader (PerkinElmer) under green filtered <100 lux light.
To determine the inhibitory potency of test compounds in response to IL-2, the average emission intensity of beads bound to pSTAT5 was measured in a human T cell line. IC50 values were determined from analysis of the inhibition curves of signal intensity versus compound concentration. Data are expressed as pIC50 (negative decadic logarithm IC50) values (mean±standard deviation).

## CCc1cc(O)ccc1-c1ccc2c(-c3nc4c([nH]3)CN(C)[C@H](C(=O)N3CCN(C)C[C@@H]3C)C4)n[nH]c2c1 [Example 3, ((S)-2,4-dimethylpiperazin-1-yl)((S)-2-(6-(2-ethyl-4-hydroxyphenyl)-1H-indazol-3-yl)-5-methyl-4,5,6,7-tetrahydro-3H-imidazo[4,5-c]pyridin-6-yl)methanone]
[1]
  IC50: 50.1 nM
[2]
  IC50: 1.58 nM
